Reference: PubChem BioAssay AID435000 (NMMLSC, 2010)
The list shows a part of the results, in another mix than the full data. Some tests of the compounds listed are not included; inactive here does not mean inactive elsewhere. Activity calls are given as the source filed them.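 The calls were made as follows: active = fluorescence response below 15%; inactive = the rest.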

Assay: DHE quenching or ROS scavenging interference in aged yeast, artefact control for yeast caloric restriction mimetic project, S. cerevisiae BY4741, flow cytometry (AID 435000);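 also: percent of the mean fluorescence averaged over all compound wells on the plate; lower means stronger quenching of DHE signal or ROS scavenging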
Conditions: at 10 µM, active compounds read low

With `COc1cc(C(=O)NCC2(N(C)C)CCCCC2)c([N+](=O)[O-])cc1OC` the fluorescence response was inactive: 97%.
